Source: US5739117A, “Agent for improving cerebral metabolism including glucose ester derivatives” (Fujimoto Pharmaceutical Co., Ltd., priority 1993, dated 1998)

How the values were obtained:
[1] = Intra-cerebral and blood concentrations of ^18 F-AFDG and its metabolites after intravenous injection; design: species or system mice; details: mouse, in vivo
Method: Mice were given an intravenous injection of 0.05 ml solution of 0.5 mM ^18 F-AFD in DMSO.

[2] = rat, in vivo

## OC[C@H]1OC(O)[C@H]([18F])[C@@H](O)[C@@H]1O (stereo partly drawn) [^18 F-FDG, 2-^18 F-D-glucose]
[1]
  time of emergence of intra-cerebral metabolites: ≤ 0.5 min
[2]
  competition by glucose of transport to the cerebral tissue: no competition even to the maximum concentration of glucose, 80 mM
  transport rate to the cerebral tissue: higher than 90%
  transport rate to the cerebral tissue, effect of glucose concentration: decreased inversely as the concentration of glucose was increased
